Earlier results in patent US12421227B2, “Ribociclib salts and solid state forms thereof” (ASSIA CHEMICAL INDUSTRIES LTD., priority 2017, dated 2025).

Details: cited from earlier work

## Ribociclib succinate [form I of Ribociclib succinate]
After exposure to 95% RH
  solid form after exposure to humidity: didn't change
High humidity
  stability at high humidity: stable
